Test results published in patent US10028961B2, “Therapeutically active compounds and their methods of use” (AGIOS PHARMACEUTICALS, INC., priority 2013, dated 2018).

The chains behind the UniProt entries cited, without tags or fusion partners.
UniProt O75874, whole entry R132H: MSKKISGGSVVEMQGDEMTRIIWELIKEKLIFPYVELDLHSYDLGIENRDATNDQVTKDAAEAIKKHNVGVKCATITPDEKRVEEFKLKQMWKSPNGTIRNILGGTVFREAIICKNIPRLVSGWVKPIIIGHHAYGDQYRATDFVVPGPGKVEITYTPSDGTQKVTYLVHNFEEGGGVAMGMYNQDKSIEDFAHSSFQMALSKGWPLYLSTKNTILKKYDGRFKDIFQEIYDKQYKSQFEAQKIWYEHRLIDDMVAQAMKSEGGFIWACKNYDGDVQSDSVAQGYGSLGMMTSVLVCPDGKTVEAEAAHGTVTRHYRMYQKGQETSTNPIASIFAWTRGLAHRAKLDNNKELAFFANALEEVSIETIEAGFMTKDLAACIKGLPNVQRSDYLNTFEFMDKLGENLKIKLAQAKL
UniProt O75874, whole entry R132C: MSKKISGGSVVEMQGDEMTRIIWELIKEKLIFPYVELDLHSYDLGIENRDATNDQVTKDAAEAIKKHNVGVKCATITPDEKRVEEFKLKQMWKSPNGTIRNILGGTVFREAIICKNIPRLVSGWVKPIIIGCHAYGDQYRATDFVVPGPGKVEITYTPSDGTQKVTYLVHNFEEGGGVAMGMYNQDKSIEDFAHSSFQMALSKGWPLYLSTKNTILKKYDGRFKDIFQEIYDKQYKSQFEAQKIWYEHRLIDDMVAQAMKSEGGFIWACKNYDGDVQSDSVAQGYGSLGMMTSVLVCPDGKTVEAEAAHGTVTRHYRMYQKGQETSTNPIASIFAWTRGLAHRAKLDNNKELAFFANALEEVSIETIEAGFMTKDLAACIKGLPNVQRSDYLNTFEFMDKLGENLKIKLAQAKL
UniProt O75874, whole entry, stated change not applied: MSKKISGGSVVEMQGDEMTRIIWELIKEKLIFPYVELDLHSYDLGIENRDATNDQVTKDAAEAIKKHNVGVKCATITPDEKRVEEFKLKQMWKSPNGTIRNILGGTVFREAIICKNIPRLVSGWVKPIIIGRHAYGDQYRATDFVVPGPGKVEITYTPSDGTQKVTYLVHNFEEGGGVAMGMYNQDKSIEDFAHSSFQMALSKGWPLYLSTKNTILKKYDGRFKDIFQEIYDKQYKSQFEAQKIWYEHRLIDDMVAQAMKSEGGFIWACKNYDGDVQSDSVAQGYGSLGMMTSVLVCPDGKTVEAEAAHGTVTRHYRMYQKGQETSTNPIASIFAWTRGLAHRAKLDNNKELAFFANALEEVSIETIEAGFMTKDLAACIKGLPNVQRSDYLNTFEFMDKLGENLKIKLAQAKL

Experiments:
Format in all cases: biochemical
[1] = molecular target: IDH1-R132 homodimer enzyme (R132H) (Homo sapiens (Human), UniProt O75874, R132H); assay: In vitro assay IDH1-R132H homodimer, NADPH depletion assay
Protocol: (§1) The following describes the experimental procedures that can be used to obtain data on columns 3 and 6 of Table 4.
(§2) A test compound is prepared as 10 mM stock in DMSO and diluted to 50× final concentration in DMSO, for a 50 μl reaction mixture. IDH enzyme activity converting alpha-ketoglutarate to 2-hydroxyglutaric acid is measured using a NADPH depletion assay. In the assay the remaining cofactor is measured at the end of the reaction with the addition of a catalytic excess of diaphorase and resazurin, to generate a fluorescent signal in proportion to the amount of NADPH remaining. […] The reaction is started with the addition of 10 μl of Substrate Mix ([…], 5 mM alpha-ketoglutarate, in Assay Buffer) and the mixture is incubated for 90 minutes at room temperature.

IDH1 R132C = IDH1 R132C (Homo sapiens (Human), UniProt O75874, R132C); assay: In vitro assay IDH1 R132C homodimer, NADPH depletion assay
Protocol: as §1, §2
The concentration of NADPH and alpha-ketoglutarate in the Substrate Buffer is 20 μM and 1 mM, respectively.

[2] = molecular target: IDH1-R132H homodimer enzyme (Homo sapiens (Human), UniProt O75874, R132H); assay: In vitro assay IDH1-R132H homodimer, NADPH depletion assay with NADPH/NADP preincubation; details: 5 μM NADPH and 37.5 μM NADP
Protocol: (§3) The following describes the experimental procedures that can be used to obtain data on columns 3 and 5 of Table 5.
as §2, with “60” for “90”

[3] = molecular target: IDH1-R132C homodimer enzyme (Homo sapiens (Human), UniProt O75874, R132C); assay: In vitro assay IDH1-R132C homodimer, NADPH depletion assay with NADPH/NADP preincubation; details: 5 uM NADPH and 28.75 uM NADP, read-out: IDH R132C NADPH/NADP IC50
Protocol: as §3
as §2, with “60” for “90”
The concentration of alpha-ketoglutarate in the Substrate Buffer is 1 mM.

[4] = molecular target: IDH1 wt/IDH1 R132H heterodimer (Homo sapiens (Human), UniProt O75874, R132H); assay: In vitro assay for IDH1m R132H inhibitors, IDH1 wt/IDH1 R132H heterodimer, NADPH depletion (diaphorase/resazurin); details: NADPH/NADP, not saturated
Protocol: The following describes the experimental procedures that can be used to obtain data on columns 2 and 4 of Table 4 and column 2 of Table 5.
In the primary reaction, the reduction of α-KG acid to 2-HG is accompanied by a concomitant oxidation of NADPH to NADP. The amount of NADPH remaining at the end of the reaction time is measured in a secondary diaphorase/resazurin reaction in which the NADPH is consumed in a 1:1 molar ratio with the conversion of resazurin to the highly fluorescent resorufin.
The mixture of compound, enzyme, and cofactor is pre-incubated at room temperature for 1 hr prior to the addition of alpha-ketoglutarate. To perform the secondary reaction, 10 uL of 1× buffer containing 36 μg/ml diaphorase and […] resazurin is added to the primary reaction and incubated for a further 5 minutes at 25° C. […] Compounds or compound dilutions are prepared in 100% DMSO concentration and diluted 1:50 into the final reaction. […] IC50s are determined.
IDH1 or IDH2 wildtype (wt) and mutant heterodimers are expressed and purified by methods known in the art. […] Co-expression of IDH1wt-his and IDH1R132C-flag is carried out in sf9 insect cells. Cells (25 g) are resuspended in 250 ml of 50 mM Tirs, 500 mM NaCl, pH7.4, at 4° C. with stirring. […]

Row | SMILES | IC50 [1] | IC50 (IDH1 R132C) | IC50 [2] | IC50 [3] | IC50 [4]
1 | C[C@H](Nc1cc(N[C@H](C)C2CC2)nc(-c2cccc(C(F)(F)F)n2)n1)C1CC1 [Compound 415] | 100 to 1000 nM | 100 to 1000 nM | – | – | –
2 | C[C@@H](Nc1cc(N[C@H](C)C2CC2)nc(-c2cccc(C(F)(F)F)n2)n1)C1CC1 [Compound 414] | 100 to 1000 nM | 100 to 1000 nM | 50 to 100 nM | 100 to 1000 nM | –
3 | C[C@H](Nc1cc(N[C@@H](C)C2CC2)nc(-c2cccc(C(F)(F)F)n2)n1)C1CC1 [Compound 416] | 100 to 1000 nM | – | – | – | < 50 nM
4 | CC(Nc1cc(NC(C)C2CC2)nc(-c2cccc(C(F)(F)F)n2)n1)C1CC1 (stereo not drawn) [Compound 420] | 100 to 1000 nM | – | – | – | –
